Source: BindingDB's records for doi:10.1016/j.ejphar.2003.10.049 (University of Innsbruck, 2004)

Sequences of proteins named here, by UniProt entry; tags and fusion partners are left off. A change or cut given only in a name is not applied to a line headed by its entry.
UniProt P34975: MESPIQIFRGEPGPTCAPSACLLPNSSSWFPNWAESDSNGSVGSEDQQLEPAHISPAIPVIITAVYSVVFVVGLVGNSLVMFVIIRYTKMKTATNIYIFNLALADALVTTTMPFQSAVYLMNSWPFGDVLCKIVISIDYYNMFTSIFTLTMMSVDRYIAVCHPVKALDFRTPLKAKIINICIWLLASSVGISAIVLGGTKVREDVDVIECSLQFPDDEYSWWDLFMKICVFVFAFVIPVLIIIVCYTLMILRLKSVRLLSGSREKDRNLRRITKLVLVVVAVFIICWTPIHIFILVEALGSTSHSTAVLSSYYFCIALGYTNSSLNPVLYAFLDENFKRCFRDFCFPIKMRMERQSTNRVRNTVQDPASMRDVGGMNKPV
UniProt P33535, whole entry: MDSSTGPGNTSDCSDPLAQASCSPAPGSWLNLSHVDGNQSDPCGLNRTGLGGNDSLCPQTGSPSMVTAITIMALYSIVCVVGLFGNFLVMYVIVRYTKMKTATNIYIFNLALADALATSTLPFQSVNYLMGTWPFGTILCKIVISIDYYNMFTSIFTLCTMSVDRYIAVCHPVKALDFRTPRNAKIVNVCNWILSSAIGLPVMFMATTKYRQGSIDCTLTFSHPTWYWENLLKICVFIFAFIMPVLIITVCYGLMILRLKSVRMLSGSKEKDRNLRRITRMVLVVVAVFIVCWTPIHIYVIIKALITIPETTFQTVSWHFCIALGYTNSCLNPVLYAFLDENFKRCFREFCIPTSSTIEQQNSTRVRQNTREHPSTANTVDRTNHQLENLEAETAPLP

How the values were obtained:
[1] = molecular target: Kappa-type opioid receptor (Rattus norvegicus, UniProt P34975)
[2] = molecular target: Mu-type opioid receptor (Rattus norvegicus, UniProt P33535)

Compound | Ki [1] [nM] | Ki [2] [nM]
COC12CC[C@H](NCC(=O)O)[C@@H]3Oc4c(O)ccc5c4[C@@]31CCN(C)C2C5 (stereo partly drawn) [2-[(4,5alpha-epoxy-3-hydroxy-14beta-methoxy-17-methylmorphinan-6alpha-yl)amino]acetic acid bis(tetrafluoroborate)] | 43.2 | 0.89
COC12CC[C@@H](NCC(=O)O)[C@@H]3Oc4c(O)ccc5c4[C@@]31CCN(C)C2C5 (stereo partly drawn) [2-[(4,5alpha-epoxy-3-hydroxy-14beta-methoxy-17-methylmorphinan-6beta-yl)amino]acetic acid bis(tetrafluoroborate)] | 44.8 | –
COC12CC[C@H](N[C@H](C)C(=O)O)[C@@H]3Oc4c(O)ccc5c4[C@@]31CCN(C)C2C5 (stereo partly drawn) [(2S)-2-[4,5alpha-epoxy-3-hydroxy-14beta-methoxy-17-methylmorphinan-6alpha-yl)amino]propanoic acid bis(tetrafluoroborate)] | – | 0.77
COC12CC[C@@H](N[C@H](C)C(=O)O)[C@@H]3Oc4c(O)ccc5c4[C@@]31CCN(C)C2C5 (stereo partly drawn) [(2S)-2-[4,5alpha-epoxy-3-hydroxy-14beta-methoxy-17-methylmorphinan-6beta-yl)amino]propanoic acid bis(tetrafluoroborate)] | – | 1.9
